# In patent US20060241082A1, “Modulating vesicular monoamine transporter trafficking and function: a novel approach for the treatment of parkinson's disease” (priority 2002, published 2006):
# Protein sequences, listed by entry. Tags and fused reporters are not part of them.
# UniProt Q01827, whole entry: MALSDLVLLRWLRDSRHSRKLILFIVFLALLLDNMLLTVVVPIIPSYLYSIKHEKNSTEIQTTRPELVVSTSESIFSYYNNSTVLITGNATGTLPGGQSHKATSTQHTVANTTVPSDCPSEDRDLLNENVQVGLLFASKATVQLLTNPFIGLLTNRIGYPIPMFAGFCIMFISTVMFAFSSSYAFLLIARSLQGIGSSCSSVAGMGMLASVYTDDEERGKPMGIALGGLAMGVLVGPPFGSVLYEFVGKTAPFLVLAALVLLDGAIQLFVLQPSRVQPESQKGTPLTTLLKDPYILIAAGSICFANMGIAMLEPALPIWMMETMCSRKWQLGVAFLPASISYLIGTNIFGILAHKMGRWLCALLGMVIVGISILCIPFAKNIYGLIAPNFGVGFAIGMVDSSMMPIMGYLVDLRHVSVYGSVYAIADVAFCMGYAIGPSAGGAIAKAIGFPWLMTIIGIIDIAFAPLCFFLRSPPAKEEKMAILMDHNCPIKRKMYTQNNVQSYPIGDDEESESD
# Tests used:
# [1] = target: T1, VMAT-2 (Rattus norvegicus, UniProt Q01827); parameters: purified striatal vesicles prepared from treated rats; from tissue; host or cells: striatum of male Sprague-Dawley rats (synaptic vesicles; P2, P3, S3 fractions); settings: rats; Brown et al., 2001a,b; cited from earlier work
# [2] = target: T1, VMAT-2; parameters: purified striatal vesicles prepared from treated rats; from tissue; host or cells: striatum of male Sprague-Dawley rats (synaptic vesicles; P2, P3, S3 fractions); settings: in vivo
# Description: Osmolarity was restored by addition of N-(2-hydroxyethyl)-piperazine-N′-2-ethanesulfonic acid (HEPES) and potassium tartrate 25 mM and 100 mM (final concentrations; pH 7.5 at 4° C.), respectively.
structure (smiles),measurement,setting,value
CCCN1CCC[C@@H]2Cc3n[nH]cc3C[C@H]21 [quinpirole],vesicular [3H]DA uptake after administration alone,[1],increases
same,vesicular [3H]DA uptake when rats were concurrently treated with METH,[2],neither treatment increased
